The record followed here is PubChem BioAssay AID1347076 (National Center for Advancing Translational Sciences (NCATS), 2019).

Only a part is listed here, and it is no random draw. Results filed as inconclusive are left out. Entries that show only a call come without a potency. Activity calls are given as the source filed them. Calls come from the whole dose curve; as a rule, active = well fitted cell-killing curve with a large enough effect; inconclusive = small, poorly fitted or top-dose-only effect, or effect the other way; inactive = flat fitted curve, though single readings scatter.
Potency is the fitted concentration of half-maximal effect.

The nature of this assay: qHTS assay for MDR1-selective chemotherapeutics: Primary screen using the drug-selected MDR subline cells KB-V1. Note: nearly all actives have a fitted effect of over 60% in size. The note with it: KB-V1 MDR cells viability, CellTiter-Glo, 72 h; series mostly up to 46.1 µM. The source says: A prime difficulty in effectively treating cancer is the development of cellular resistance to multiple structurally unrelated anticancer drugs, a phenomenon known as multidrug resistance (MDR). […] Numerous strategies to overcome P-gp-mediated MDR have been explored, including the design of drugs that evade recognition and efflux, and development of inhibitors to block efflux and restore drug accumulation. […] An alternative approach is to exploit resistance by identifying drugs that target MDR cells over the non-resistant parental cells from which they were selected. […] The development of MDR1-selective agents represents a new strategy for resolving multidrug resistance, as it remains a long-standing clinical challenge for cancer chemotherapy.
Our goal is to identify compounds that selectively kill P-gp-expressing MDR cells. We will identify MDR1-selective compounds by comparing toxicity of compounds in the screening library against parental, drug-naive (KB-3-1) adenocarcinoma cells as well as their drug-selected MDR sub-line (KB-V1). The differential toxicity of compounds against these two cell lines will be used to identify MDR1-selective compounds, whose cytotoxicity is potentiated, rather than diminished, by P-gp expression. This assay will be utilized to conduct a quantitative high-throughput screen (qHTS) in collaboration with the NIH Chemical Genomics Center to identify selective agents, and probe hits arising from the screen will be validated using secondary assays and characterized through a well-established follow-up research program. This screen was run against the entire NCGC library collection of about 400,000 compounds.
NIH Molecular Libraries Probe Production Network [MLPCN]
NIH Chemical Genomics Center [NCGC]
PI: Michael Gottesman, National Cancer Institute, NIH
Briefly, 5 microL of media containing either KB-V1 cells (columns 1-2, 4-48) are dispensed into Greiner white, treated solid-bottom 1536-well assay plates (media-only control is added to column 3). Compounds are then transferred via Kalypsys pin tool equipped with 1536-pin array (10 nL slotted pins, V&P Scientific, San Diego, CA). Following addition of compound, the plates are incubated at 37 degrees C for 72 hours. CellTiter-Glo (2.5 µL/well) is then added, and the plates are read in a ViewLux reader (Perkin-Elmer, clear luminescence filter, 1 second exposure, 1x binning) following a 10 minute incubation. All cells are dispensed in DMEM phenol-red free media containing 10% FBS.
Library plates were screened starting from the lowest and proceeding to the highest concentration. Vehicle-only plates, with DMSO being pin-transferred to columns 5-48, will be inserted uniformly at the beginning and the end of each library in order to monitor and record any shifts in the background, which can be affected by reagent dispensers or loss in enzyme activity over time. Screening data will be corrected, normalized, and concentration-effect relationships will be derived by using publicly-available NCGC, NCATS curve fitting algorithms (http://ncgc.nih.gov/pub/openhts).
On the technique in general: qHTS replaces the single test concentration by a dilution series.
`CC(C)(C)C(=O)NC(Sc1ccncn1)C(Cl)(Cl)Cl` (stereo unspecified): the Potency result is “inactive”.

For the molecule `O=[N+]([O-])c1ncn(CCn2ncnc2[N+](=O)[O-])n1`, the Potency entry was “inactive”.

With `O=P(/N=c1/nc(-c2ccccc2)n(-c2ccccc2)s1)(Nc1ccccc1)Nc1ccccc1`, the Potency result was “inactive”.

Turning to `Cc1cc(C=O)ccc1N(CCCl)CCCl`, the Potency entry was “inactive”.

`O=P1(N(CCCl)CCCl)OCCCS1` (stereo unspecified): the Potency entry was “inactive”.

Consider `CC(C)c1nc(Nc2ccccc2)n(P(=O)(N(C)C)N(C)C)n1`, for which the Potency result is “inactive”.

Regarding `COc1cc([N+](=O)[O-])c([N+](=O)[O-])cc1OC`, the Potency entry is “inactive”.

`CC(C)=N/N=C(\N)N[N+](=O)[O-]`: the Potency entry is “inactive”.

On to `CN(C)C(=O)OCCc1n(C)cc[n+]1C`, for which the Potency result is “inactive”.

Consider `CC1CCN(C(=O)Oc2c(Cl)cc(Cl)c3cccnc23)CC1`, for which the Potency result is “inactive”.

As for `c1cc(-c2nn[nH]n2)ccc1-c1nn[nH]n1`, the Potency entry is “inactive”.

On to `Nc1ccc([As](=O)(O)c2ccc(N)cc2)cc1`, for which the Potency result was “inactive”.

In the case of `CCN(/C(=N/P(=O)(N1CCOCC1)N1CCOCC1)N1CCOCC1)c1ccc(OC)cc1`, the Potency result was “inactive”.

Regarding `O=[N+]([O-])c1cccc2n[nH]nc12`, the Potency entry is “inactive”.

With `CC(=O)N1C2C3N(C(C)=O)C1C1N(C(C)=O)C(C(N1C(C)=O)N3C(C)=O)N2C(C)=O`, the Potency result is “inactive”.

Consider `Cc1ccc(NP(=O)(Oc2ccccc2)Oc2ccccc2)nc1`, for which the Potency entry is “inactive”.

As for `CCc1nc2c(n1)c1c(non1O)c1c2no[n+]1[O-]`, the Potency entry was “inactive”.

As for `O=[N+]([O-])c1cc([N+](=O)[O-])c(CCNc2ccccc2)c([N+](=O)[O-])c1`, the Potency entry was “inactive”.

Turning to `COc1ccc(C2=NCC(CBr)S2)cc1` (stereo unspecified), the Potency entry was “inactive”.

For the molecule `CCC(C)N(CC(C)C)C(=S)SC(NC(C)=O)C(Cl)(Cl)Cl` (stereo unspecified), the Potency result is “inactive”.

For the molecule `CCOC(=O)c1ccc(NC(=O)C(C)(CCl)SC)cc1` (stereo unspecified), the Potency entry was “inactive”.

Take `O=C(OC1CN2CCC1CC2)c1cccc([N+](=O)[O-])c1` (stereo unspecified): the Potency entry is “inactive”.

In the case of `O=C(COc1ccccc1)OC1CN2CCC1CC2` (stereo unspecified), the Potency result was “inactive”.

In the case of `O=C(Nc1ccncc1[N+](=O)[O-])c1ccc([N+](=O)[O-])cc1[N+](=O)[O-]`, the Potency result was “inactive”.

With `O=C(O)C(=O)c1ccc(N(CCCl)CCCl)cc1`, the Potency entry is “inactive”.

For `COC(=O)C1(C)COP(=O)(N2CCCC2)OC1` (stereo unspecified), the Potency result was “inactive”.

As for `O=[N+]([O-])c1ccc(Nc2ccc(Oc3ccc([N+](=O)[O-])cc3[N+](=O)[O-])cc2)c([N+](=O)[O-])c1`, the Potency entry is “inactive”.

On to `O=P(Nc1ccccn1)(c1cccc2ccccc12)c1cccc2ccccc12`, for which the Potency result was “inactive”.

On to `Cc1cc(SC(NC=O)C(Cl)(Cl)Cl)ncn1` (stereo unspecified), for which the Potency result is “inactive”.

With `CCOC(=O)Nc1cccc([As](=O)(O)O)c1`, the Potency entry is “inactive”.

As for `CCCCOc1ccc(C(=O)NCC2(N3CCCCC3)CCCCC2)cc1OC`, the Potency result is “inactive”.

Turning to `Cc1cc(SC(NC(=O)c2ccccc2)C(Cl)(Cl)Cl)nc(C(C)C)n1` (stereo unspecified), the Potency result was “inactive”.

For the molecule `COP(=O)(OC)N1CC1c1ccccc1` (stereo unspecified), the Potency entry was “inactive”.

Regarding `CC1CCNP(=O)(N(CCCl)CCCl)O1` (stereo unspecified), the Potency result is “inactive”.

Regarding `CCOC(=O)Nc1ccc([As](=O)(O)O)c(O)c1`, the Potency result is “inactive”.

On to `O=C(O)C(O)c1ccc(N(CCCl)CCCl)cc1` (stereo unspecified), for which the Potency result is “inactive”.

Regarding `O=C(OC1CN2CCC1CC2)c1cccc2[nH]cnc12` (stereo unspecified), the Potency entry is “inactive”.

For `CCN(CC)C(=S)SC(NC=O)C(Cl)(Cl)Cl` (stereo unspecified), the Potency was active: 4.11 µM.

As for `O=[N+]([O-])c1cc([N+](=O)[O-])c(-c2ccn[nH]2)s1`, the Potency result was “inactive”.

`COC(=O)C1(C)COP(=O)(N2CCCCCC2)OC1` (stereo unspecified): the Potency result is “inactive”.

For the molecule `ClCCSc1nnc(-c2cccnc2)o1`, the Potency entry was “inactive”.

For `O=Cc1ccc(NCCCl)cc1`, the Potency result was “inactive”.

With `Cc1ccc2nc3c(c(C)c2c1)CC(C(Cl)Cl)S3` (stereo unspecified), the Potency result is “inactive”.

With `[N-]=[N+]=NC1CCCCC1NC(=O)c1cc([N+](=O)[O-])cc([N+](=O)[O-])c1` (stereo unspecified), the Potency entry is “inactive”.

In the case of `Cc1ccc(OP(=O)(Nc2ccc([N+](=O)[O-])cn2)Oc2ccc(C)cc2)cc1`, the Potency result is “inactive”.

Turning to `ClCCN(CCCl)c1ccc(CC2C=CC=C2)cc1`, the Potency entry was “inactive”.

Turning to `O=[As](O)(c1ccc(O)cc1)c1ccccc1O`, the Potency entry was “inactive”.

As to `C[As](=O)(O)c1cccc(C(=O)O)c1`, the Potency entry was “inactive”.

For the molecule `O=[N+]([O-])c1ccc(-c2cc([N+](=O)[O-])c(O)c([N+](=O)[O-])c2)cc1`, the Potency entry is “inactive”.

As to `COc1cc(C(=O)NCC2(N3CCOCC3)CCCCC2)ccc1OCC(C)C`, the Potency result is “inactive”.

With `COc1ccc(N/C(=N/P(=O)(N2CCOCC2)N2CCOCC2)N2CCOCC2)cc1`, the Potency result was “inactive”.

Consider `O=[N+]([O-])c1cc(Oc2ccc([N+](=O)[O-])cc2C(F)(F)F)cc([N+](=O)[O-])c1`, for which the Potency result is “inactive”.

On to `COc1ccc2nc(NP(=O)(c3ccccc3)c3ccccc3)sc2c1`, for which the Potency result is “inactive”.

For `COc1cc(I)ccc1[As](=O)(O)O`, the Potency entry was “inactive”.

`O=P1(N(CCCl)CCCl)OCCCN1CCCl` (stereo unspecified): the Potency result was “inactive”.

For `O=P1(N(CCCl)CCCl)Nc2ccccc2N1`, the Potency result is “inactive”.

`O=C(OC1CN2CCC1CC2)C12CC3CC(CC(C3)C1)C2` (stereo unspecified): the Potency entry is “inactive”.

Take `Cc1cc(=O)[nH]c(N[N+](=O)[O-])n1`: the Potency entry is “inactive”.

`Cc1c2c(nc3ccccc13)SC(C(Cl)Cl)C2` (stereo unspecified): the Potency result was “inactive”.

Turning to `COc1cc(C2NCCC3(OCCO3)C2(C)C)cc(OC)c1OC` (stereo unspecified), the Potency entry was “inactive”.

Regarding `CCOP(=O)(Nc1cccc2ccccc12)OCC`, the Potency entry was “inactive”.
